# Yeast mating assay 2: variants of the scFv Ab-91

Antigen: PDVDLGDISGINAS, a 14-residue peptide of the SARS-CoV-2 spike HR2 region.

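Phage display of a naive human antibody library on the peptide gave the parent. AAYL51 was designed without a model: most single CDR substitutions and a random sample of double and triple ones. The scFvs were displayed on barcoded MATa yeast, the peptide on MATalpha yeast. Mating (16 h, 30 °C) was followed by selection of diploids and sequencing of their barcodes. Each replicate has its own calibration line, from reference interactions of the BCL2 family. Each pool was mated in three replicate cultures.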

The variants keep the light chain, the linker and the frameworks of Ab-91 (scFv order VL, the linker GGGGSGGGGSGGGGS, VH).
VL: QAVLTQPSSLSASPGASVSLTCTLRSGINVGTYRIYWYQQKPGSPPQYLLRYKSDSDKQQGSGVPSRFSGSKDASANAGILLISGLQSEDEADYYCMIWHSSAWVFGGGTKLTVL
VH: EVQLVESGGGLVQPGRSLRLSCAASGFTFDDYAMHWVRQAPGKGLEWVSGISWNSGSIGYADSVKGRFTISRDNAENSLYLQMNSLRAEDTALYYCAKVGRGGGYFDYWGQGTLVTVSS

The parent's heavy chain CDRs are GFTFDDYAMH, GISWNSGSIGYADSVK, VGRGGGYFDY; each variant's own CDRs replace them letter for letter. Scale: log10 of Kd in nM, estimated from mating counts; low values are strong binders. The mean shown is taken over the replicates in which the pair was detected. "ND" marks a missing value. The strain was present, yet no cells mated with the target were sequenced in that replicate, which points to weak or no binding. Empty control strains, which show no peptide, gave a signal in 21% of pairings with library AAYL51; the median was 4.54 and 95% of these signals were weaker than 3.26. No background was subtracted. Also given: how often the same scFv was detected with the empty control strains, with their mean in brackets. For reference, the parent read 1.86 as the reference entry and 0.88 as a member of this library.

| # | CDR-H1 | CDR-H2 | CDR-H3 | log10 Kd, replicates | mean log10 Kd (nM) | empty controls |
|---|---|---|---|---|---|---|
| 1 | GFTFDDYAMH | GIVWNSGSTGYADSVK | VGRGGGYFDT | 4.43 ND 4.47 | 4.45 | 2/9 (3.25) |
| 2 | GFTFDDYAMH | GISWNSMSIGYADYVK | YGRGGGYFDY | 1.26 1.15 0.81 | 1.07 | 8/9 (5.59) |
| 3 | GMTFDDYAMH | GISWNSGSDGYADSVK | VGRMGGYFDY | ND ND ND | ND | 3/9 (4.56) |
| 4 | GFTFDDYAEH | GISWNPGSIGYADSVK | VGRGGGYLDY | ND 4.73 ND | 4.73 | 2/9 (3.30) |
| 5 | GFTFDDYAMH | GISWNSGLIGYADKVK | VGRGGGYDDY | 2.60 2.67 2.61 | 2.63 | 2/9 (4.44) |
| 6 | GFTFDGYAMH | GISWNSYSIGYADSVK | VWRGGGYFDY | 4.80 3.62 ND | 4.21 | 3/9 (4.63) |
| 7 | GFFFDDYAMH | GISWNSGSIGYADSVK | VGRGGGYFLY | ND ND 4.40 | 4.40 | 4/9 (4.18) |
| 8 | GFTEDDYAMH | GISWNSGSIGYLDSVR | VGRGGGYFDY | ND 6.43 5.72 | 6.08 | 4/9 (4.94) |
| 9 | GKTFDDYAMH | GISWNSGSIGYADSVK | VGRGGGYFDY | ND ND ND | ND | 0/9 |
| 10 | GFTFDDYAMH | GHWWNSGSIGYADSVK | VGRGGSYFDY | 5.58 ND 5.09 | 5.34 | 2/9 (4.95) |
| 11 | QFTFDDYAMH | GISWNSGSIGYAGSVK | VGRGGGDFDY | ND ND ND | ND | 0/9 |
| 12 | GFTFDDYAMH | GISWNSGSIGYVDSVK | VGRGGGYTHY | 2.16 2.11 1.84 | 2.04 | 1/9 (4.72) |
| 13 | GFTFDDYAMH | GISWNSGSIVYADSVK | VGRGGGKMDY | ND ND ND | ND | 1/9 (3.43) |
| 14 | GFTFDDYAMP | GISWNSGSIGYAFSVK | VGRGGGAFDY | ND ND ND | ND | 1/9 (4.04) |
| 15 | GFTFDDYAMH | GISWNSTSIGYADSVK | VGRGGGDADY | 3.18 3.13 2.90 | 3.07 | 1/9 (3.87) |
| 16 | GFTFDDYASH | GISHNSGSFGYADSVK | VGRGGGYFDY | ND ND ND | ND | 1/9 (3.22) |
| 17 | GFTFDDYAMH | GISWNSGSIGYLPSVK | VGRGGGYFDY | 5.03 4.64 5.70 | 5.12 | 6/9 (5.17) |
| 18 | GFKFDDYAMH | GISWNSGSIGYADSVK | VGRTGGYPDY | 4.57 ND ND | 4.57 | 1/9 (2.88) |
| 19 | GFTFDDYEMH | GFSWNSGSIGYADSVK | VGRGGGYFGY | ND ND ND | ND | 1/9 (3.50) |
| 20 | GFWFDDYAMH | GISWNSGSIGYAESVK | VGRGGGYFSY | 1.50 1.15 0.86 | 1.17 | 2/9 (5.81) |
| 21 | GFTFDDYAMH | GISWNSGSQGYADSVK | VGRGGGYFCY | ND 3.17 ND | 3.17 | 1/9 (3.13) |
| 22 | GFTFHDYAMH | GIPWNSGSITYADSVK | VGRGGGYFDY | 3.51 4.55 ND | 4.03 | 5/9 (4.47) |
| 23 | GITFDDYHMH | GISWNSGSITYADSVK | VGRGGGYFDY | 5.71 5.24 3.48 | 4.81 | 4/9 (4.74) |
| 24 | GFTFDDYAMH | GISWNSGCIGYADSVK | VGRGGGKFMY | ND ND 4.37 | 4.37 | 3/9 (4.52) |
| 25 | GFTFDDYAMH | RISWNSGSIGYADSVK | VGRNGGYFDE | ND ND ND | ND | 1/9 (5.59) |
| 26 | GFCFDDYAMH | GISWNSHSIGDADSVK | VGRGGGYFDY | ND ND ND | ND | 0/9 |
| 27 | GETFDDYAMH | GISWNSGSIGGADSEK | VGRGGGYFDY | ND ND ND | ND | 1/9 (4.60) |
| 28 | GNTFDDYPMH | GISWNSGSIGYADSVK | VGRGGGYFSY | ND 3.68 ND | 3.68 | 3/9 (3.99) |
| 29 | GFTFDDYAMH | GISMISGSIGYADFVK | VGRGGGYFDY | ND 5.25 ND | 5.25 | 0/9 |
| 30 | EFTFDDDAMH | GISWNSGSIGYADSVK | VGRGGGYFAY | ND 4.42 ND | 4.42 | 0/9 |
| 31 | GFTFDDYAMH | GICWNSVSIGYADSVK | VGRGGCYFDY | ND ND ND | ND | 1/9 (3.42) |
| 32 | GFTPDDYAMH | GISWNSGSWGYADSVK | VGRGGGHFDY | 3.62 4.50 3.97 | 4.03 | 0/9 |
| 33 | GFTFDDYAKH | GISWNDGSIGYADSVK | VGRGGGYFDG | 4.32 5.09 ND | 4.71 | 3/9 (4.07) |
| 34 | GFTFDDYAMH | GISWNSGSIRYADSQK | VARGGGYFDY | ND ND ND | ND | 0/9 |
| 35 | GFDFDDYAMH | GISWNSGSIGEAMSVK | VGRGGGYFDY | ND ND ND | ND | 0/9 |
| 36 | GFTFDDYAMH | GISWNSGSIGYADSVK | VFRSGGYFKY | 2.86 2.40 1.97 | 2.41 | 1/9 (4.18) |
| 37 | GFTFDKYAMH | GISWNSGIIGYADSVK | VGRGGCYFDY | ND ND ND | ND | 1/9 (4.56) |
| 38 | GFTFDDYAMH | GISWNSGTIDYADSVK | DGRGGGYFDY | 5.71 ND 5.28 | 5.49 | 1/9 (5.68) |
| 39 | GFTSDDYAMH | GISWNSGSIVYADSVK | VGRGGGYFDS | 4.34 ND 4.16 | 4.25 | 0/9 |
| 40 | GFTFDLYAMH | GISENSGSIGYADSVK | VGRGGGYFDY | 3.84 2.69 ND | 3.27 | 1/9 (3.15) |
| 41 | GFWFDDYAMH | GISWNSGSIGYAPSVK | VGRGGGYFDY | ND ND 3.30 | 3.30 | 2/9 (4.79) |
| 42 | GFTFDDYAMH | GQSWWSGSIGYADSVN | VGRGGGYFDY | 3.67 ND ND | 3.67 | 4/9 (4.58) |
| 43 | GFTFDDIAMH | GISWNSGSIGYADYVK | VGWGGGYFDY | 4.88 ND ND | 4.88 | 3/9 (5.03) |
| 44 | GFTFDDYAMH | GISWNSGSVGWADCVK | VGRGGGYFDY | 4.21 ND 3.51 | 3.86 | 1/9 (2.99) |
| 45 | GFTFDDKAMH | GISWNSGIIGYADSTK | VGRGGGYFDY | ND ND 3.91 | 3.91 | 1/9 (3.63) |

The closing 6 entries, repeated:

CDR-H1	CDR-H2	CDR-H3	log10 Kd, replicates	mean log10 Kd (nM)	empty controls
GFTFDLYAMH	GISENSGSIGYADSVK	VGRGGGYFDY	3.84 2.69 ND	3.27	1/9 (3.15)
GFWFDDYAMH	GISWNSGSIGYAPSVK	VGRGGGYFDY	ND ND 3.30	3.30	2/9 (4.79)
GFTFDDYAMH	GQSWWSGSIGYADSVN	VGRGGGYFDY	3.67 ND ND	3.67	4/9 (4.58)
GFTFDDIAMH	GISWNSGSIGYADYVK	VGWGGGYFDY	4.88 ND ND	4.88	3/9 (5.03)
GFTFDDYAMH	GISWNSGSVGWADCVK	VGRGGGYFDY	4.21 ND 3.51	3.86	1/9 (2.99)
GFTFDDKAMH	GISWNSGIIGYADSTK	VGRGGGYFDY	ND ND 3.91	3.91	1/9 (3.63)

Reference: Engelhart et al. 2022, doi:10.1038/s41597-022-01779-4. File: FLAb, binding data.